According to patent US8419820B2, “Fast dissolving water-soluble fertilizer formulations and methods and uses thereof” (Everris International B.V., priority 2009, dated 2013):

Experiment: pH of a 1% solution of fertilizer components in water
Type: physicochemical
Conditions: 1% solution in water at room temperature

Work on Calcium Ammonium Nitrate yielded a pH of 6.
